The source of these data is patent US6916797B2, “α-arylethylpiperazine derivatives as neurokinin antagonists” (UCB, S.A., priority 2000, dated 2005).

Chains of the proteins cited; added tags and fusions are not shown.
UniProt P25103, whole entry: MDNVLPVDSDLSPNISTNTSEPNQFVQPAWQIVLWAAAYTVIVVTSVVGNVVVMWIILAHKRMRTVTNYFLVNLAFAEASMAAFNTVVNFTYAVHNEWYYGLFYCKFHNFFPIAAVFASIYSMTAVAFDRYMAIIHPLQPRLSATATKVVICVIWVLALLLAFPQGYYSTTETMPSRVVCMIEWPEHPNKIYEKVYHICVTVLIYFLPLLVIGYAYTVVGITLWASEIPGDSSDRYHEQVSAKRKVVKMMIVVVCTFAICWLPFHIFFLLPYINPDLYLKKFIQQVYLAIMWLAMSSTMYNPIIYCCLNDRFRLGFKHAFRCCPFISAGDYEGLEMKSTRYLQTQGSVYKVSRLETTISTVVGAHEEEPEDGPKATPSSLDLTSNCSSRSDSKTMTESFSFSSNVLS

The assay deals with NK1 receptors (Homo sapiens, UniProt P25103). Nature of the assay: Binding of [4,5-3H-Leu10] substance P to human recombinant NK1 receptors expressed in CHO cell membranes. Details: host or cells: CHO cells. The conditions noted are these: pIC50, pIC50 = -log IC50, concentration inhibiting by 50% the specific binding of [4,5-3H] substance P; tested as the free base/salt given in c1. The protocol: The following test was designed to assess the affinity of test substances for human recombinant NK1 receptors expressed in Chinese Hamster Ovarian (CHO) cells.
CHO cells expressing the human recombinant NK1 receptor are used. The cells were obtained from Euroscreen (Brussels, Belgium).
Cells expressing the human NK1 receptor are routinely cultured in 175 cm2 flasks containing 75 ml of medium F12 (Ham) enriched with 2 mmol/l L-glutamine, 100 IU/ml penicilline, 100 μg/ml streptomycine, 1% sodium pyruvate, 2.5 μg/ml fungizone amphotericin B, 400 μg/ml geneticin and supplemented with 10% foetal calf serum. […] When subcultured, the cells are seeded at a concentration of 50,000 cells/cm2.
Confluent cells are gently scraped and resuspended in 25 ml of phosphate buffered saline without calcium and magnesium. The cellular suspension is centrifuged at 1500×g for 3 min (4° C.). The cell pellet is homogenized in a 15 mmol/l Tris-HCl (pH 7.5) buffer, 2 mmol/l MgCl2, 0.3 mmol/l EDTA, 1 mmol/l EGTA. The crude membrane fraction is collected by two consecutive centrifugation steps at 40,000×g for 25 min (4° C.). The final pellet is resuspended in 20 mmol/l Tris-HCl (pH 7.4), 250 mmol/l sucrose buffer at a protein concentration ranging from 2 to 6 mg/ml and stored in liquid nitrogen. • 1.2.2. Test Design
The inhibition constant (Ki) is determined using increasing concentrations of the test substance. […]

As a reminder, the IC50 is the point on the concentration scale where inhibition reaches its midpoint. With `C[C@@H](OC[C@@H](c1ccccc1)N1CCN(CCOCC(=O)O)CC1)c1cc(C(F)(F)F)cc(C(F)(F)F)c1` [Compound 281], the IC50 is 7.94 nM.
